Tested on: GRK3
Assay: Gene expression in rat brain after stimulant treatment (Affymetrix U34A GeneChip), prefrontal cortex
Settings: rat frontal cortex
Method: In experiments conducted during the development of the present invention, the rat animal model was used. This model is commonly accepted by those in the art for experiments involving psychiatric disorders. In some experiments, rats were treated with a single dose of methamphetamine (4 mg/kg) and sacrificed 24 hours later. This timepoint was chosen as that most likely to detect changes of relevance to mania and psychosis. It was hypothesized that at 24 hours, most short term gene induction relevant to acute intoxication and behavioral activation would have subsided. […] As mania and psychosis are typically chronic processes in man, more persistent gene changes are more likely to be central to pathophysiological mechanisms. Gene expression was examined in the prefrontal cortex and amygdala, using the Afymetrix U34A GeneChip, which interrogates approximately 7,000 known genes and 1,000 ESTs (expressed sequence tags) using an oligonucleotide nicroarray (See, Lipshutz et al., Nat. Genet. 21:20 [1999]). These brain regions were chosen based on the extensive literature that highlights their central role in cognition and emotion (See e.g., Heimer and Alheid, Adv. Exp. Med. Biol. 1:295 [1991]).
A two-fold increase or decrease in expression was chosen as a conventional empirical cut-off. […]

CC(N)Cc1ccccc1 (stereo not shown) [amphetamine]
GRK3 expression in response to amphetamine challenge: dramatic up-regulation
